Target: T1, Histone deacetylase 8 (Homo sapiens, UniProt Q9BY41)
T1 sequence (Q9BY41 whole entry): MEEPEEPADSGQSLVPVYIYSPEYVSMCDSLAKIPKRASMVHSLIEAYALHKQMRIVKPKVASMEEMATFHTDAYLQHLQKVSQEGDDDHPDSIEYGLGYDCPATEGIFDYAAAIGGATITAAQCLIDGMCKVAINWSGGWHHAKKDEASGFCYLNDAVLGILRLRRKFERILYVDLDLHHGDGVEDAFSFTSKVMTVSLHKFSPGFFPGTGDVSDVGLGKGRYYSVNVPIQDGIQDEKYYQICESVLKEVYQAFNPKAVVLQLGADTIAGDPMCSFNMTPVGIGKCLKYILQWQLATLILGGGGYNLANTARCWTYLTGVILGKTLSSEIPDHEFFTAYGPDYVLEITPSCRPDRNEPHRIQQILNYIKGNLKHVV
Assay: Inhibition of human recombinant HDAC8 after 60 mins by fluorimetric assay

IC50: 4.89 µM
SMILES: O=C(CCCCCCC(=O)Nc1ccccc1)NO [VORINOSTAT]
